Two compounds from US12357657B2, “Silver-/gold-compounds and methods thereof” (priority 2019, dated 2025) can be followed below.

Protein sequences, listed by entry. Tags and fused reporters are not part of them. Residues count along the entry.
UniProt A0A0R6L508, 200-541: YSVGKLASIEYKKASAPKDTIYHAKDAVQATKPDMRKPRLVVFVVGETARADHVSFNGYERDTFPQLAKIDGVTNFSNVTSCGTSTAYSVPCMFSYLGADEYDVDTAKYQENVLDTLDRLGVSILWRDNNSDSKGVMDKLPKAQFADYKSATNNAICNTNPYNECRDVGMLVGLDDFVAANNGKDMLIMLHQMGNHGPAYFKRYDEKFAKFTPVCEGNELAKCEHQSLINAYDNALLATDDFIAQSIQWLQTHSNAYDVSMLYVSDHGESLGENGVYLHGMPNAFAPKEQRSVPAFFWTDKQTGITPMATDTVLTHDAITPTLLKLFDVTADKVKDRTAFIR

The term pKd denotes the Kd on a negative log10 scale, so that one unit is a factor of ten. A higher pKd goes with a small Kd.

Data set [1] deals with HepG2 cells. To be noted: XTT assay, up to the highest dose. For orientation: Tetrazolium dyes change colour on reduction, which living cells bring about.
The target in data set [2] is MCR-1-S (Escherichia coli, UniProt A0A0R6L508). Conditions: ICP-MS. The procedure: The equilibrium dialysis was used to monitor the exact binding process. Apo-MCR-1-S was put in the inner side of dialysis membrane and outer side was supplemented with Au^+, Ag^+ or Zn^2+ at different molar ratios. Zn^2+ displacement analysis was performed by adding equivalents of Au^+ and Ag^+ into outer side of the membrane.

The target in data set [3] is apo-MCR-1-S (Escherichia coli, UniProt A0A0R6L508). As to the kind of experiment: biochemical. The procedure:
The apo-MCR-1-S without any tag was diluted into proper concentration for ITC assay. […] The stoichiometry of metal binding and binding affinities were obtained by fitting the data with proper equations and these assays were performed in triplicate.

In data set [4] the target is T1, full length MCR-1 (Escherichia coli, UniProt A0A0R6L508).
T1 construct: The full length MCR-1 was pre-treated with or without 10 molar equivalents
The data set is classed as biochemical. Conditions: MCR-1 pre-treated with 10 molar equivalents, 25° C. overnight. The procedure:
TLC plate was used to separate NBD-glycerol from the MCR-1 reaction mixture in a mobile phase [ethyl acetate:methanol:water, 7:2:1 (vol/vol)]. The reaction product was analyzed by exposing the TLC plate to UV light (455-485 nm) and visualizing the fluorescent signals with a gel imaging system. […] Cellular Thermal Shift Assay

Data set [5] deals with Zn(II)-MCR-1-S (Escherichia coli, UniProt A0A0R6L508). To be noted: PAR assay.

pKd: −log10 of the molar value.

Regarding `[Ag+]` [AgNO3, silver nitrate], the “cytotoxicity against HepG2 cells” value in data set [1] is given as “did not exhibit or showed very low cytotoxicity”.

In the case of `[Au+]` [AuCl, gold(I) chloride], in data set [2], the “replacement of protein bound metal by extraneous Zn(II)” value was “could not be replaced”. The “equivalents of metal that replaced about 3 molar equivalents of Zn(II)” value in data set [2] (equilibrium dialysis) came out at 2.25 equivalent. The pKd in data set [3] is ~6.10. The “migration of NBD-glycerol (cleavage activity of MCR-1)” value in data set [4] is reported as “none of AgNO3, AuCl or Au(PEt3)Cl treatment group exhibited observable migration”. For the same compound, in data set [5], the “release of Zn(II) from MCR-1-S upon titration” value is reported as “completely released”.
